Reference: patent publication US7612081B2 (priority 2003, dated 2009)
Read-outs that look alike come from different tables or passages of the source.

How the values were obtained:
[1] = system: NCl—H460 non-microcytoma lung cancer cells; assay: Cytotoxic activity on NCl—H460 cells (sulforodamine B)
[2] = system: MKN-28 human gastric carcinoma; conditions: q4dx4
Protocol: Tumor fragments were inoculated on both flanks at day 0. Treatment started when tumors were just palpable. The molecule was given by oral route and intravenously according to the schedule q4d×4. During the treatment, animals were inspected every day for mortality. Physical appearance, behavior and general and local clinical signs of the mice will be observed daily. Any deviation from normality was recorded. All animals were weighed during the whole treatment period, in order to calculate the percent body weight loss due to the treatment.
Tumor volume inhibition % in treated over control tumors was evaluated 20 days after last treatment. To determine the antitumor activity of the drug, tumor diameters was measured biweekly with a Vernier caliper. The formula TV (mm^3)=[length (mm)×width (mm)^2]/2 was used, where the width and the length are the shortest and the longest diameters of each tumor, respectively.
When tumors reached a weight of about 2 g, the mice were sacrificed by cervical dislocation. LCK (log cell kill) as index of efficacy was calculated to evaluate the persistence of the effect of the molecule at the end of the treatment.

“7-[(N′,N″,N′″-tert-butoxycarbonyl)-spermine-imino-methyl]-20S-camptothecin [ST2544]” was tested. Which “Cytotoxicity on the lung cancer line (in words)” value [1] did it give?
Its value is “very potent cytotoxicity”.

What about the Tox ([2]; iv, 1 mg/kg) of the same substance?
Its Tox is 0/4.

And the “BWL % (body weight loss)” value ([2]; iv, 2 mg/kg)?
The value was 6%.

What about the Tox ([2]; iv, 2 mg/kg) of the same substance?
Its Tox is 0/4.

What about the “BWL % (body weight loss)” value ([2]; iv, 4 mg/kg) of the same substance?
The value was 0%.

And the Tox ([2]; iv, 4 mg/kg)?
Its Tox is 0/4.

What about the “BWL % (body weight loss)” value ([2]; p.o., 1 mg/kg) of the same substance?
The value was 5%.

What about the Tox ([2]; p.o., 1 mg/kg) of the same substance?
Its Tox is 0/4.

And the “BWL % (body weight loss)” value ([2]; p.o., 2 mg/kg)?
The value was 1%.

And the Tox ([2]; p.o., 2 mg/kg)?
Its Tox is 0/4.

What about the “BWL % (body weight loss)” value ([2]; p.o., 4 mg/kg) of the same substance?
Its value is 7%.

What about the “LCK (1000 mm^3) (log cell kill)” value ([2]; p.o., 4 mg/kg) of the same substance?
The value was 1.

What about the Tox ([2]; p.o., 4 mg/kg) of the same substance?
Its Tox is 0/4.
